Published antibiotic growth screens (doi:10.1038/s41589-023-01349-8)
The list shows a part of the results.

Test system: A. baumannii ATCC 17978
Assay: relative growth (fraction of control); higher = less inhibition
Conditions: 50 µM

SMILES	relative growth
CC(=O)Nc1ccc(C(=O)O)cc1	1.07
COc1ccccc1NC(=O)N(C)C[C@H]1Oc2ncc(Br)cc2C(=O)N([C@@H](C)CO)C[C@H]1C	0.976
CSc1ccc2c(c1)N(CCC1CCCCN1C)c1ccccc1S2.Cl (stereo not drawn)	0.901
CNC(=O)C(=O)NC[C@H]1OCCN1S(=O)(=O)c1ccccc1	0.882
COc1ccc(S(=O)(=O)N[C@H]2CC[C@H](CC(=O)N3CCN(c4ccccc4)CC3)O[C@H]2CO)cc1	0.866
O=C(C[C@@H]1C=C[C@@H](NC(=O)Nc2cc(F)ccc2F)[C@@H](CO)O1)NCCCN1CCOCC1	0.94
CC[C@H]1CN(C(=O)c2cnccn2)N1C	1
CC1(C)N=C(N)N=C(N)N1c1ccccc1	0.975
CC[C@@H]([C@H](C)O)n1ncn(-c2ccc(N3CCN(c4ccc(OC[C@@H]5CO[C@@](Cn6cncn6)(c6ccc(F)cc6F)C5)cc4)CC3)cc2)c1=O	0.931
CN(C)[C@@H]1C(O)=C(C(N)=O)C(=O)[C@@]2(O)C(O)=C3C(=O)c4c(O)cccc4[C@@](C)(O)[C@H]3C[C@@H]12.Cl	0.171
O=C(O)c1ccccc1	0.966
CCC(C)C(=O)O[C@H]1C[C@H](O)C=C2C=C[C@H](C)[C@H](CC[C@@H](O)C[C@@H](O)CC(=O)[O-])C21.[Na+] (stereo partly drawn)	0.906
O=C(C[C@@H]1CC[C@H](NC(=O)CN2CCOCC2)[C@H](CO)O1)NCCc1ccccc1	1.18
COc1cccc(NC(=O)N2C[C@@H](O)COC[C@@H]3O[C@@H](CC(=O)NC4Cc5ccccc5C4)CC[C@H]32)c1	1.11
Brc1ccc(-c2cc3n(c2)CCc2ccccc2-3)cc1	1.15
CN1C(=O)/C(=C(/C#N)C(N)=O)c2ccccc21	0.915
CCOc1ccc(NC(C)=O)cc1	1.06
CNC(=O)C[C@@H]1CC[C@@H]2[C@H](COC[C@@H](O)CN2C(=O)c2ccccn2)O1	0.965
CCOC(=O)/C(C)=N/NC(C)=O	0.879
CO[C@H]1CN(C)C(=O)c2ccc(NC(=O)Nc3cccc(F)c3)cc2OC[C@H](C)N(C(=O)Nc2c(C)noc2C)C[C@H]1C	1.02
C[C@H]1CCC2=C(CCC[C@@]2(C)C(=O)O)[C@@]1(C)CCc1ccoc1	0.947
CCCC[C@@H](CC)COC(=O)C(C#N)=C(c1ccccc1)c1ccccc1	1.34

SMILES	relative growth
O=C(CCn1ccc(=O)[nH]c1=O)Nc1ccc2c(c1)NC(=O)CO2	0.891
COc1cc2ncnc(Nc3ccc(F)c(Cl)c3)c2cc1OCCCN1CCOCC1	1.04
C/C(C[P+](c1ccccc1)(c1ccccc1)c1ccccc1)=N\NC(=O)CCCCCCC(=O)Nc1ccccc1O	0.869
CO[C@@H](CN(C)C(=O)Nc1ccc(C(F)(F)F)cc1)[C@@H](C)CN(Cc1ccccc1Cl)[C@@H](C)CO	0.598
COc1ccc(CNCC(=O)O)cc1	1.04
[N-]=[N+]=Nc1ccccc1[C@H]1OC(c2ccc(OCCCO)cc2)=N[C@@]1(CCS(=O)(=O)c1ccccc1)C(=O)NCc1ccccc1	1.01
CCC(=O)Nc1nn2c(C)nnc2s1	0.924
C[C@]12CCC(=O)C=C1CCC1C2[C@@H](O)C[C@@]2(C)C1CC[C@]2(O)C(=O)COC(=O)CCC(=O)O (stereo partly drawn)	1.15
NC(=O)CCN1C(=O)[C@@H]2[C@@H](C1=O)[C@@H]1C=C[C@@H]2C1	0.985
O=C(C[C@@H]1CC[C@@H]2[C@H](COC[C@@H](O)CN2C(=O)c2ccc3c(c2)OCO3)O1)NCCN1CCCC1	0.983
O.O=C(O)[C@@H]1[C@H]2C[C@H]3c4[nH]c5ccccc5c4CCN3C[C@@H]2CC[C@@H]1O	0.92
CNC(=O)Cn1c(=O)c2c(OC)ccnc2n(C)c1=O	1.01
NC(=O)Nc1ccc(C(=O)O)cc1	1.23
COC(=O)C(CC#Cc1ccc2c(c1)[C@]1(C(=O)N2)[C@H](c2ccc(O)cc2)N2[C@H](c3ccccc3)[C@H](c3ccccc3)OC(=O)[C@H]2[C@@H]1C(=O)NC[C@H](O)c1ccccc1)C(=O)OC	0.986
CC(C)=CCc1c2c(c3occ(-c4ccc(O)cc4)c(=O)c3c1O)C=CC(C)(C)O2	0.834
CN1CCN(c2c(F)cc3c(=O)c(C(=O)O)cn4c3c2SCC4)CC1	0.139
CN1CCN(S(C)(=O)=O)CC1	0.932
CCC(=O)N[C@H]1CC[C@@H](CC(=O)OC)O[C@@H]1CO	1.07
COC(=O)C1=C(C)NC(C)=C(C(=O)OCC(C)C)C1c1ccccc1[N+](=O)[O-] (stereo not drawn)	1.16
O=C(C[C@H]1CC[C@@H](NS(=O)(=O)c2ccccc2F)[C@@H](CO)O1)NCCCN1CCOCC1	0.888
CN(C/C=C/C#CC(C)(C)C)Cc1cccc2ccccc12.Cl	1.12
CCCNC(=O)N1C[C@H](O)COC[C@H]2O[C@@H](CC(=O)N3CCOCC3)CC[C@@H]21	0.809

SMILES	relative growth
COc1ccccc1-c1ccc2c(c1)O[C@H](CN(C)C(=O)c1ccncc1)[C@@H](C)CN([C@H](C)CO)S2(=O)=O	1.13
O=c1cc(-c2ccc(O)cc2)oc2cc(O)ccc12	1.08
COCCNC(=O)C[C@@H]1C[C@@H]2c3cc(NC(=O)COC)ccc3O[C@@H]2[C@@H](CO)O1	0.966
Cn1c(=O)[nH]c2nnc(-c3ccccn3)nc2c1=O	0.633
O=c1c2ccccc2oc2ccc(O)cc12	1.1
NC(=O)NC1NC(=O)NC1=O (stereo not drawn)	0.883
O=C(CN1CCOCC1)NCC[C@@H]1CC[C@H](NC(=O)Nc2ccccc2)[C@@H](CO)O1	1.09
CC/C=C\CC1=C(C)CCC1=O	1.04
Cn1cnc(CCNC(=O)C[C@H]2CC[C@@H]3[C@H](COC[C@H](O)CN3C(=O)Nc3ccc(Cl)cc3)O2)c1	0.945
C[C@@H]1CN([C@H](C)CO)S(=O)(=O)c2ccc(C#Cc3ccccc3)cc2O[C@@H]1CN(C)C(=O)CN(C)C	0.803
O=C1CCc2ccc(OCCCCN3CCN(c4cccc(Cl)c4Cl)CC3)cc2N1	0.795
CCC(/C=C/[C@@H](C)[C@H]1CCC2C3CC=C4C[C@@H](O)CC[C@]4(C)C3CC[C@@]21C)C(C)C (stereo partly drawn)	0.925
O=C(C[C@@H]1CC=CC[C@@H](NC(=O)OCC2c3ccccc3-c3ccccc32)C(=O)OC[C@@H](Cc2ccccc2)NC1=O)N[C@@H](CO)Cc1ccccc1	0.922
O=C(C[C@@H]1C=C[C@H](NC(=O)c2cccnc2)[C@H](CO)O1)NCc1ccncn1	0.867
COc1ccc([Si](C)(C)[C@@H]2[C@@H](CCn3cc([C@H](O)c4ccccc4)nn3)O[C@]3(C(=O)N(C)c4c(Br)cc(C)cc43)[C@H]2C)cc1	1.23
COc1ccc2ccccc2c1-c1c(OC)ccc2ccccc12	1.15
COc1c2ccoc2cc2oc(=O)ccc12	1.03
NC1CCN(Cc2nc3ccccc3[nH]2)CC1	0.982
CCOC(=O)c1sc(=NN)[nH]c1C	1
NCC[C@H]1CC[C@@H](NC(=O)NC2CCCCC2)[C@H](CO)O1	1.12
CN(C)CCCNC(=O)C[C@@H]1CC[C@@H](NS(=O)(=O)c2ccccc2)[C@H](CO)O1	1.04
CC(C)CC#Cc1ccc2c(c1)O[C@@H](CN(C)C(=O)c1cnccn1)[C@@H](C)CN([C@H](C)CO)S2(=O)=O	0.967

SMILES	relative growth
Cc1ccccc1S(=O)(=O)N1C[C@H](O)COC[C@H]2O[C@@H](CC(=O)N3CCC(Cc4ccccc4)CC3)CC[C@@H]21	0.873
CCC(=O)O[C@H](CC(=O)O)C[N+](C)(C)C.[Cl-]	0.947
Cc1ccccc1S(=O)(=O)N1C[C@H](O)COC[C@H]2O[C@@H](CC(=O)NCc3ccccc3Cl)CC[C@@H]21	0.86
CC[C@@H](Nc1n[nH]c(=O)[nH]c1=O)C(=O)OC	1.08
CCOC(=O)Cn1c(=O)c(C(N)=S)cn(C(C)C)c1=O	0.937
CCN1C(=O)C(N=O)N(CC)C1=S (stereo not drawn)	0.936
CN(C)CCC=C1c2ccccc2C=Cc2ccccc21.Cl	0.822
Cc1ccc(S(=O)(=O)N(C)C[C@H]2Oc3cc(C#Cc4ccccc4)ccc3S(=O)(=O)N([C@H](C)CO)C[C@@H]2C)cc1	1.1
N=c1c(C(N)=S)cnc2ccccn12	1.04
O=C1C(O)=C([C@H]2CC[C@H](c3ccc(Cl)cc3)CC2)C(=O)c2ccccc21	1.4
CN1CCOC(c2ccccc2)c2ccccc2C1 (stereo not drawn)	0.868
COCC#Cc1ccc2c(c1)O[C@H](CN(C)S(=O)(=O)c1cccc(F)c1)[C@H](C)CN([C@H](C)CO)S2(=O)=O	0.742
C[C@@H]1CN([C@@H](C)CO)S(=O)(=O)c2ccc(C#C[C@@H](C)O)cc2O[C@H]1CN(C)C(=O)C1CCCCC1	0.949
CN1CCCN=C1/C=C/c1cccc(O)c1.O=C(O)c1cc2ccccc2c(Cc2c(O)c(C(=O)O)cc3ccccc23)c1O	1.03
NCC[C@@H]1CC[C@@H](NC(=O)NC2CCCCC2)[C@@H](CO)O1	0.926
c1ccc(-c2nc(-c3cccs3)[nH]c2-c2ccccc2)cc1	1.33
COCCNC(=O)C[C@H]1CC[C@H]2[C@@H](COC[C@@H](O)CN2C(=O)Nc2ccccc2OC)O1	1.05
CC(O)C(N)C(=O)O (stereo not drawn)	0.945
Cc1ccc(S[C@]2(C(=O)NC3CC3)CC(=O)N(Cc3cc(C(F)(F)F)cc(C(F)(F)F)c3)[C@@H]2c2ccc(CO)cc2)cc1	0.942
O=C1O[C@@H](c2ccccc2)[C@@H](c2ccccc2)N2[C@@H](c3ccc(O)cc3)[C@]3(C(=O)Nc4ccc(C#CC5(O)CCCCCC5)cc43)[C@@H](C(=O)N3CCN(c4ncccn4)CC3)[C@H]12	0.866
CO[C@H]1CN(C)C(=O)c2cc(NC(=O)c3ccc(F)cc3)ccc2OC[C@@H](C)N(C(=O)CN(C)C)C[C@@H]1C	1.02
O=C(C[C@@H]1CC[C@@H]2[C@H](COC[C@H](O)CN2S(=O)(=O)c2ccc(Cl)cc2)O1)NCCN1CCCCC1	1.01
